Values quoted from earlier work, collected in paper PMC5641599 (Molecular Metabolism, 2017).
Read-outs that look alike come from different tables or passages of the source.

Protein sequences, listed by entry. Tags and fused reporters are not part of them. Residues count along the entry.
UniProt P32245, whole entry F201L: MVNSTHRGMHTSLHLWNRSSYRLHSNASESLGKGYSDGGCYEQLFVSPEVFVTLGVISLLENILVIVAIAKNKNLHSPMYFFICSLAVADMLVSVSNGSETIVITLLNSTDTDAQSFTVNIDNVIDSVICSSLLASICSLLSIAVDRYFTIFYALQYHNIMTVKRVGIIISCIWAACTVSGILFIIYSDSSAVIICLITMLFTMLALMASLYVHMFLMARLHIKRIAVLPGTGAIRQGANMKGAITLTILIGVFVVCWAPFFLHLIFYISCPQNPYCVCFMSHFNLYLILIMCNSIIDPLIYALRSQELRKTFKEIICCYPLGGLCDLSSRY
UniProt P32245, whole entry T178M: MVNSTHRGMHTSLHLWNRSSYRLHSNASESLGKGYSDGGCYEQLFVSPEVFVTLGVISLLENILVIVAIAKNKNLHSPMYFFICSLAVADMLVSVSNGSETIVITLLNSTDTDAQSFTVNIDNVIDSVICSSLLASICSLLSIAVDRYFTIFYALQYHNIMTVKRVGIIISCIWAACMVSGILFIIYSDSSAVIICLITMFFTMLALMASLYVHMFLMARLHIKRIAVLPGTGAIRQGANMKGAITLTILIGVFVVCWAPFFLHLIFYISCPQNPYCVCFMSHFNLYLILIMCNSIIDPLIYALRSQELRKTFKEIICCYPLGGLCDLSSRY
UniProt P32245, whole entry H76R: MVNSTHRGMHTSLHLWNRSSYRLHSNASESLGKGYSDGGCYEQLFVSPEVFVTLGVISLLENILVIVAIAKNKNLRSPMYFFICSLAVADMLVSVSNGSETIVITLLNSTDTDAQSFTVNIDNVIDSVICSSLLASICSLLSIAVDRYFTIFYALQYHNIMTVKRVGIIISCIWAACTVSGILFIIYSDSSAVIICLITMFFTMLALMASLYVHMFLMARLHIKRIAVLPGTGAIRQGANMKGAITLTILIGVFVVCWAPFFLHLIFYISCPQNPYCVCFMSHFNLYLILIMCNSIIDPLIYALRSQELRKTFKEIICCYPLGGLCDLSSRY
UniProt P32245, whole entry T248A: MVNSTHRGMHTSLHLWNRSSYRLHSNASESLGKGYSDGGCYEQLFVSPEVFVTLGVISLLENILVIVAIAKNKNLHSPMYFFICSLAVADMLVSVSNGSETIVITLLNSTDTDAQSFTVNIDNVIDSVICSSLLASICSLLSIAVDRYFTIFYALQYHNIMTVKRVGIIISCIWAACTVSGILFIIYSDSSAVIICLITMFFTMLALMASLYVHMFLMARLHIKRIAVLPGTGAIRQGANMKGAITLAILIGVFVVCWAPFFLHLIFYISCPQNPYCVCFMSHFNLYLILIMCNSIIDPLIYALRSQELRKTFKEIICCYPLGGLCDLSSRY
UniProt P32245, whole entry F202L: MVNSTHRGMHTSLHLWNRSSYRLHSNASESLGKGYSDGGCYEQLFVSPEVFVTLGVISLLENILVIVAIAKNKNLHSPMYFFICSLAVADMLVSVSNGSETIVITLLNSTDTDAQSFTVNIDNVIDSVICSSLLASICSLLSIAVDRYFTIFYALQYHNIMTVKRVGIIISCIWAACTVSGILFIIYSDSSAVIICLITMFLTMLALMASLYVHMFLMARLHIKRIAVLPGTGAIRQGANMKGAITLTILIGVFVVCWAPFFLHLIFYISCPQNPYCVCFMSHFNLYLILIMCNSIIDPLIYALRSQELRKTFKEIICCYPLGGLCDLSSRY
UniProt P32245, whole entry E61K: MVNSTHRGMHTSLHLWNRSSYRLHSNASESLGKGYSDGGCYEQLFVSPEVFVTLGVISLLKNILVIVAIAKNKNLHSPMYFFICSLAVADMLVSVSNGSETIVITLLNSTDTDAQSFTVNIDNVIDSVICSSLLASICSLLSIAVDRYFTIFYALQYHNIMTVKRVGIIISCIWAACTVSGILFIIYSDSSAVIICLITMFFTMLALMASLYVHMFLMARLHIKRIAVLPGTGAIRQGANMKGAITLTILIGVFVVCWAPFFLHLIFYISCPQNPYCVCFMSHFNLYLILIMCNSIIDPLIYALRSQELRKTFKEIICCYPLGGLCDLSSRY
UniProt P32245, whole entry D90N: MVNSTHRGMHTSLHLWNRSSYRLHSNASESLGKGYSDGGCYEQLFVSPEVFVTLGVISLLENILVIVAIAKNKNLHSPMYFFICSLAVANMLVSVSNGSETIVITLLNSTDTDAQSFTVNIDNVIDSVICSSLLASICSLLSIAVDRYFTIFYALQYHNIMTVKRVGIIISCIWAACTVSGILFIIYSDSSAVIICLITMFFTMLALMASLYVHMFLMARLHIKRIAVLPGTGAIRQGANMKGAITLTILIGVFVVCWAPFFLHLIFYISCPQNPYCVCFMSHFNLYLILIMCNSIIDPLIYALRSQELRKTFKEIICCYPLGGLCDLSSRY
UniProt P32245, whole entry L325F: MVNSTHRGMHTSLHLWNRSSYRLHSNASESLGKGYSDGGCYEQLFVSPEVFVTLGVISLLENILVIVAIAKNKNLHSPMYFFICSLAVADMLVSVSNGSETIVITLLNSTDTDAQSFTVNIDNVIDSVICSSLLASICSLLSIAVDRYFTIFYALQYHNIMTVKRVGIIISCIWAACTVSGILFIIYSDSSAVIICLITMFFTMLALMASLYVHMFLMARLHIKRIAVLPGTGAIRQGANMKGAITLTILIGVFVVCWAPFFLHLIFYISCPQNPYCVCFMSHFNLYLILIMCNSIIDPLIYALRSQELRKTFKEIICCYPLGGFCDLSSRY
UniProt P32245, whole entry V166I: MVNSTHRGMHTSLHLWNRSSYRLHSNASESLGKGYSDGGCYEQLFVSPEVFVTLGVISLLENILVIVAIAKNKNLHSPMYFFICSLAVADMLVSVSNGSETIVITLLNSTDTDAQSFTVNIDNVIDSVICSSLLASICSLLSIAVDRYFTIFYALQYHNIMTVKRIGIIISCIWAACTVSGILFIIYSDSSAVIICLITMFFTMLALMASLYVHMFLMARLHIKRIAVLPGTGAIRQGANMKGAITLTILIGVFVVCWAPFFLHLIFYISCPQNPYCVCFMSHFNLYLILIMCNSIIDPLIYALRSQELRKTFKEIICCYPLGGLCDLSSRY
UniProt P32245, whole entry Y332C: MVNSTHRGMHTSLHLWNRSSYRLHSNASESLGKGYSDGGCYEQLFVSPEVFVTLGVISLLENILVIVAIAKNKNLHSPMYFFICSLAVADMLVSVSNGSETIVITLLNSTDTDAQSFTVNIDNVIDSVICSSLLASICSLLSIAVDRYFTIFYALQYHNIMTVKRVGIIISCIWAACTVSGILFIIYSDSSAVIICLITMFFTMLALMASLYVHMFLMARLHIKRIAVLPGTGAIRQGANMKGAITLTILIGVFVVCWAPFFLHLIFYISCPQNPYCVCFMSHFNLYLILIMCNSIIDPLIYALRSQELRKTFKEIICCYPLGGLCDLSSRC
UniProt P32245, whole entry T11A: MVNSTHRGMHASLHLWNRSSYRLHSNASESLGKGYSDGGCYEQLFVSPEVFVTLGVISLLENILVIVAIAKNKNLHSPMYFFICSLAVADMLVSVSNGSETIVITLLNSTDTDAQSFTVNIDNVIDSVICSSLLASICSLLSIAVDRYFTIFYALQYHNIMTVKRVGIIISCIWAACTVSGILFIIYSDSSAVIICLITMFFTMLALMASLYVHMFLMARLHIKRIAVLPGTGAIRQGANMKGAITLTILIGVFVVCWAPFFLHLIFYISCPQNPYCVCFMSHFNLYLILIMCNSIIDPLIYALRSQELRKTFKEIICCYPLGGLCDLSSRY
UniProt P32245, whole entry I69T: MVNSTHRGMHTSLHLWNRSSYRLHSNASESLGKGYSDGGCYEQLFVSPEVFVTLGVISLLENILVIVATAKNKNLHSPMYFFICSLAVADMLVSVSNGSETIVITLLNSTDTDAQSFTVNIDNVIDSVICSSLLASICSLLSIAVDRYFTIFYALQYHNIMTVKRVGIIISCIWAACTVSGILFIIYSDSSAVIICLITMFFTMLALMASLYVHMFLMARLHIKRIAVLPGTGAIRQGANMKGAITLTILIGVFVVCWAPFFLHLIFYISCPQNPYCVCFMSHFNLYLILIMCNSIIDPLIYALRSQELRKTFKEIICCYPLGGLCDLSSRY
UniProt P32245, whole entry N274S: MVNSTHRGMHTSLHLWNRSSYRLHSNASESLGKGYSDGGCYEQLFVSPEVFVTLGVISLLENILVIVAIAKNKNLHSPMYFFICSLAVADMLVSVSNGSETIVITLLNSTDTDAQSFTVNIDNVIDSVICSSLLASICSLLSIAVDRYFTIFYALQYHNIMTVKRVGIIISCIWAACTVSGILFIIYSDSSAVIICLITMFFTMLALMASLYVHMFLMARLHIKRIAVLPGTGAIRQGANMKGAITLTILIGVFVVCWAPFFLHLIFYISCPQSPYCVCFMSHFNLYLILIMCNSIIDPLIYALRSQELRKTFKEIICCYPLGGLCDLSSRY
UniProt P32245, whole entry I301T: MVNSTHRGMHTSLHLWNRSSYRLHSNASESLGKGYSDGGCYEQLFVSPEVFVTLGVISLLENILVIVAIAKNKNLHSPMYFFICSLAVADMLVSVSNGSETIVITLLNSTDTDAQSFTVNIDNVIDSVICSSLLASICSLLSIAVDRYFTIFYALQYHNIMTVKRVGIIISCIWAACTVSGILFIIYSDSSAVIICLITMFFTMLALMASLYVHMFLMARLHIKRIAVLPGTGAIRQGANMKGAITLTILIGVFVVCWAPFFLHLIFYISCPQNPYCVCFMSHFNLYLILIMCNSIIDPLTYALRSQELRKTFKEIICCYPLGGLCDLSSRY
UniProt P32245, whole entry S295P: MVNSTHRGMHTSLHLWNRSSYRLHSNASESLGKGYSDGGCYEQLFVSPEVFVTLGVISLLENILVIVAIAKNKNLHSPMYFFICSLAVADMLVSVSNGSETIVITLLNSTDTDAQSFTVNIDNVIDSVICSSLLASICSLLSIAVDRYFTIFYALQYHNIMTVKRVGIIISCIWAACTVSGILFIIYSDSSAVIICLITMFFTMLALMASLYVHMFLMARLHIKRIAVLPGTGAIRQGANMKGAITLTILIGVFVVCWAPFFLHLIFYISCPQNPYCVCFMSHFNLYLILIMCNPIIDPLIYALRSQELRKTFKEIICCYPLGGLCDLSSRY
UniProt P32245, whole entry I186V: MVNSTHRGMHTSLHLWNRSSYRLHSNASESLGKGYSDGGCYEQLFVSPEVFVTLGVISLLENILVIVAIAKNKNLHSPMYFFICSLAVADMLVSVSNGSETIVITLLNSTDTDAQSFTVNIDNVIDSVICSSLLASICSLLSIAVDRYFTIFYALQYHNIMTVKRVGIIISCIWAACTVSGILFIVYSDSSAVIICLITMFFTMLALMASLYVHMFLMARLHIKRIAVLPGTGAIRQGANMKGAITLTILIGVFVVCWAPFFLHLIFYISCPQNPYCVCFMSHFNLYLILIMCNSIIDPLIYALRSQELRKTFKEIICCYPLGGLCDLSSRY
UniProt P32245, whole entry R18C: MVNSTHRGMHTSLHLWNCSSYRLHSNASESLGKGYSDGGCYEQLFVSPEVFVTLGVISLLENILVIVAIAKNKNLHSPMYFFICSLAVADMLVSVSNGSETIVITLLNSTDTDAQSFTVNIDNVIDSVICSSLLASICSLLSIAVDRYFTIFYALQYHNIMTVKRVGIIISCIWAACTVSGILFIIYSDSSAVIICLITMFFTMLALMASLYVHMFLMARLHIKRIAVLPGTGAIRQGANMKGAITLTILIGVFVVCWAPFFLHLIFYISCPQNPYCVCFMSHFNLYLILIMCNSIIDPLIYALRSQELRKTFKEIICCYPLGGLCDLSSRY
UniProt P32245, whole entry G238D: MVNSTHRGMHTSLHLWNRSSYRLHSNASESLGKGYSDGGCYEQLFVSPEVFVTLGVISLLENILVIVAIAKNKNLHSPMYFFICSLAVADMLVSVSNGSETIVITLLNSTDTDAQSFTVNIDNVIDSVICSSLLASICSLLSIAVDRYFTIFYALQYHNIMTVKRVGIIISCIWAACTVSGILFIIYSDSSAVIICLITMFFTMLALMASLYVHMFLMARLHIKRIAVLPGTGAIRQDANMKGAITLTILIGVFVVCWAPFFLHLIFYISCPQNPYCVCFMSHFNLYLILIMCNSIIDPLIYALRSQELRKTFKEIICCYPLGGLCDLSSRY
UniProt P32245, whole entry M200V: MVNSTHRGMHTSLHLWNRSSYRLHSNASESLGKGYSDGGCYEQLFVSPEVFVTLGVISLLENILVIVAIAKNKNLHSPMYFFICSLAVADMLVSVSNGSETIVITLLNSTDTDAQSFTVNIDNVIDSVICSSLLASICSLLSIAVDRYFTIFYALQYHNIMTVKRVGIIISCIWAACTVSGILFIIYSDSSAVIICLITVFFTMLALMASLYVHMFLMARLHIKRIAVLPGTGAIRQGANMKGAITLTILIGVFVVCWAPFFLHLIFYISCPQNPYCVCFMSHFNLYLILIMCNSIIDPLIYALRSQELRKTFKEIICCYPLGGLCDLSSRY
UniProt P32245, 1-286 limits assumed: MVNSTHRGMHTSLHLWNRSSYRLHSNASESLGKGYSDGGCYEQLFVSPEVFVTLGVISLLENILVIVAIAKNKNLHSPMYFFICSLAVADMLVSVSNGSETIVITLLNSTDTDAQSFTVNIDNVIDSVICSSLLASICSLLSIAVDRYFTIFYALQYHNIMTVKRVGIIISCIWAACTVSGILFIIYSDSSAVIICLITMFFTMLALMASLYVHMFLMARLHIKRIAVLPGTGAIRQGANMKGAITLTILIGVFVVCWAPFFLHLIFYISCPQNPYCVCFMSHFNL

Tests used:
MC4R variants [1] = conditions: cited from earlier work
MC4R variants [2] = biological target: MC4R variants (Homo sapiens, UniProt P32245, F201L); conditions: MC4R F201L; ref Wang ZQ, Biochim Biophys Acta, 2011; cited from earlier work
MC4R variants [3] = biological target: MC4R variants (Homo sapiens, UniProt P32245, T178M); conditions: MC4R T178M; ref Xiang Z, Biochemistry, 2006; cited from earlier work
MC4R variants [4] = biological target: MC4R variants (Homo sapiens, UniProt P32245, H76R); conditions: MC4R H76R; ref Wang ZQ, Biochim Biophys Acta, 2011; cited from earlier work
MC4R variants [5] = biological target: MC4R variants (Homo sapiens, UniProt P32245, T248A); conditions: MC4R T248A; ref Huang H, J Mol Endocrinol, 2012; cited from earlier work
MC4R variants [6] = biological target: MC4R variants (Homo sapiens, UniProt P32245, F202L); conditions: MC4R F202L, cited from earlier work
MC4R variants [7] = biological target: MC4R variants (Homo sapiens, UniProt P32245, E61K); conditions: MC4R E61K; ref Xiang Z, Biochemistry, 2010; cited from earlier work
MC4R variants [8] = biological target: MC4R variants (Homo sapiens, UniProt P32245, D90N); conditions: MC4R D90N; ref Xiang Z, Biochemistry, 2010; cited from earlier work
MC4R variants [9] = biological target: MC4R variants (Homo sapiens, UniProt P32245, L325F); conditions: MC4R L325F; ref Xiang Z, Biochemistry, 2010; cited from earlier work
MC4R variants [10] = biological target: MC4R variants (Homo sapiens, UniProt P32245, V166I); conditions: MC4R V166I, COS-7 cell line, cited from earlier work
MC4R variants [11] = biological target: MC4R variants (Homo sapiens, UniProt P32245, Y332C); conditions: MC4R Y332C; ref Wang ZQ, Biochim Biophys Acta, 2011; cited from earlier work
MC4R variants [12] = biological target: MC4R variants (Homo sapiens, UniProt P32245, T11A); conditions: MC4R T11A; ref Xiang Z, Biochemistry, 2006; cited from earlier work
MC4R variants [13] = biological target: MC4R variants (Homo sapiens, UniProt P32245, I69T); conditions: MC4R I69T; ref Xiang Z, Biochemistry, 2010; cited from earlier work
MC4R variants [14] = biological target: MC4R variants (Homo sapiens, UniProt P32245, N274S); conditions: MC4R N274S; ref Xiang Z, Biochemistry, 2006; cited from earlier work
MC4R variants [15] = biological target: MC4R variants (Homo sapiens, UniProt P32245, I301T); conditions: MC4R I301T; ref Xiang Z, Biochemistry, 2006; cited from earlier work
MC4R variants [16] = biological target: MC4R variants (Homo sapiens, UniProt P32245, S295P); conditions: MC4R S295P; ref Xiang Z, Biochemistry, 2010; cited from earlier work
MC4R variants [17] = biological target: MC4R variants (Homo sapiens, UniProt P32245, I186V); conditions: MC4R I186V; ref Wang ZQ, Biochim Biophys Acta, 2011; cited from earlier work
MC4R variants [18] = biological target: MC4R variants (Homo sapiens, UniProt P32245, R18C); conditions: MC4R R18C; ref Xiang Z, Biochemistry, 2006; cited from earlier work
MC4R variants [19] = biological target: MC4R variants (Homo sapiens, UniProt P32245, G238D); conditions: MC4R G238D; ref Xiang Z, Biochemistry, 2010; cited from earlier work
MC4R variants [20] = biological target: MC4R variants (Homo sapiens, UniProt P32245, M200V); conditions: MC4R M200V; COS-7 cell line; ref Hinney A, J Clin Endocrinol Metab, 2006; cited from earlier work
MC4R variants [21] = biological target: MC4R variants (Homo sapiens, UniProt P32245); conditions: MC4R Y287X; ref Xiang Z, Biochemistry, 2006; cited from earlier work
MC4R variants [22] = biological target: MC4R variants (Homo sapiens, UniProt P32245, I121T); conditions: MC4R I121T; ref Xiang Z, Biochemistry, 2010; cited from earlier work
MC4R variants [23] = biological target: MC4R variants (Homo sapiens, UniProt P32245, I289L); conditions: MC4R I289L; ref Wang ZQ, Biochim Biophys Acta, 2011; cited from earlier work
MC4R variants [24] = biological target: MC4R variants (Homo sapiens, UniProt P32245, C271Y); conditions: MC4R C271Y; ref Xiang Z, Biochemistry, 2006; cited from earlier work
MC4R variants [25] = biological target: MC4R variants (Homo sapiens, UniProt P32245, I137T); conditions: MC4R I137T; ref Xiang Z, Biochemistry, 2006; cited from earlier work
MC4R variants [26] = biological target: MC4R variants (Homo sapiens, UniProt P32245, D37G); conditions: MC4R D37G; ref Hughes DA, Hum Genet, 2009; cited from earlier work

Which results are given for β-MSH?
Binding IC50 - Ligand no.2 (WT fold) (MC4R variants [1]; MC4R D146N, ref Wang ZQ, Biochim Biophys Acta, 2011): 0.0443 WT fold; Binding IC50 - Ligand no.2 (WT fold) (MC4R variants [1]; MC4R F201L, ref Wang ZQ, Biochim Biophys Acta, 2011): 0.58 WT fold; Binding IC50 - Ligand no.2 (WT fold) (MC4R variants [1]; MC4R G231V, ref Wang ZQ, Biochim Biophys Acta, 2011): 0.96 WT fold; Binding IC50 - Ligand no.2 (WT fold) (MC4R variants [1]; MC4R I186V, ref Wang ZQ, Biochim Biophys Acta, 2011): 0.73 WT fold; Binding IC50 - Ligand no.2 (WT fold) (MC4R variants [1]; MC4R I195S, ref Wang ZQ, Biochim Biophys Acta, 2011): 0.39 WT fold; Binding IC50 - Ligand no.2 (WT fold) (MC4R variants [1]; MC4R T248A, ref Huang H, J Mol Endocrinol, 2012): 0.75 WT fold; cAMP EC50 - Ligand no.2 (WT fold) (MC4R variants [2]): 1.64 WT fold; cAMP EC50 - Ligand no.2 (WT fold) (MC4R variants [3]): 0.86 WT fold; cAMP EC50 (WT fold) (MC4R variants [4]): 0.36 WT fold; cAMP EC50 - Ligand no.2 (WT fold) (MC4R variants [5]): 1.13 WT fold; cAMP EC50 - Ligand no.2 (WT fold) (MC4R variants [6]; COS-7 cell line, ref Hughes DA, Hum Genet, 2009): 1.60 WT fold; cAMP EC50 - Ligand no.2 (WT fold) (MC4R variants [6]; ref Xiang Z, Biochemistry, 2010): 2.83 WT fold; cAMP EC50 (WT fold) (MC4R variants [7]): 145.67 WT fold; cAMP EC50 (WT fold) (MC4R variants [8]): 753.33 WT fold; cAMP EC50 (WT fold) (MC4R variants [9]): 1.10 WT fold; cAMP EC50 - Ligand no.2 (WT fold) (MC4R variants [10]; ref Hinney A, J Clin Endocrinol Metab, 2006): 1.81 WT fold; cAMP EC50 - Ligand no.2 (WT fold) (MC4R variants [10]; ref Hughes DA, Hum Genet, 2009): 2.90 WT fold; cAMP EC50 (WT fold) (MC4R variants [11]): 0.48 WT fold; cAMP EC50 - Ligand no.2 (MC4R variants [12]): 0.38 WT fold; cAMP EC50 (WT fold) (MC4R variants [13]): 31.73 WT fold; cAMP EC50 (WT fold) (MC4R variants [14]): 0.86 WT fold; cAMP EC50 (WT fold) (MC4R variants [15]): 5.81 WT fold; cAMP EC50 (WT fold) (MC4R variants [16]): 2.30 WT fold; cAMP EC50 - Ligand no.2 (WT fold) (MC4R variants [17]): 0.33 WT fold; cAMP EC50 - Ligand no.2 (MC4R variants [18]): 0.76 WT fold; cAMP EC50 - Ligand no.2 (WT fold) (MC4R variants [19]): 0.63 WT fold; cAMP EC50 - Ligand no.2 (WT fold) (MC4R variants [20]): 0.27 WT fold; cAMP EC50 - Ligand no.2 (MC4R variants [21]): 40.48 WT fold; cAMP EC50 - Ligand no.2 (WT fold) (MC4R variants [22]): 3.17 WT fold; cAMP EC50 (WT fold) (MC4R variants [23]): 0.39 WT fold; cAMP EC50 (WT fold) (MC4R variants [24]): 366.67 WT fold; cAMP EC50 - Ligand no.2 (WT fold) (MC4R variants [25]): 1.02 WT fold; cAMP EC50 - Ligand no.2 (MC4R variants [26]): 1.50 WT fold
